Laboratory results from patent US12564559B2, “Combinations of LSD1 inhibitors for use in the treatment of solid tumors” (Oryzon Genomics, S.A., priority 2016, dated 2026).

Test system: SCLC cell lines
Experiment: In vitro Synergy Score of combinations with the LSD1 inhibitor in expanded panel of SCLC cell lines, Example 3 / Table 5
Format: cell-based, human
Conditions: for Synergy Scores of SCLC cell lines DMS-114: SCLC cell line DMS-114; for Synergy Scores of SCLC cell lines DMS-114 / Synergy Scores of SCLC cell lines NCI-H69 / Synergy Scores of SCLC cell lines NCI-H187 / Synergy Scores of SCLC cell lines NCI-H446 / Synergy Scores of SCLC cell lines NCI-H510 / Synergy Scores of SCLC cell lines NCI-H526 / Synergy Scores of SCLC cell lines NCI-H1417 / Synergy Scores of SCLC cell lines NCI-H1876 / Synergy Scores of SCLC cell lines NCI-H2171 / Synergy Scores of SCLC cell lines SHP-77: 2nd API combined with (trans)-N1-((1R,2S)-2-phenylcyclopropyl)cyclohexane-1,4-diamine, scores >6.4 considered significant; for Synergy Scores of SCLC cell lines NCI-H69: SCLC cell line NCI-H69; for Synergy Scores of SCLC cell lines NCI-H187: SCLC cell line NCI-H187; for Synergy Scores of SCLC cell lines NCI-H446: SCLC cell line NCI-H446; for Synergy Scores of SCLC cell lines NCI-H510: SCLC cell line NCI-H510; for Synergy Scores of SCLC cell lines NCI-H526: SCLC cell line NCI-H526; for Synergy Scores of SCLC cell lines NCI-H1417: SCLC cell line NCI-H1417; for Synergy Scores of SCLC cell lines NCI-H1876: SCLC cell line NCI-H1876; for Synergy Scores of SCLC cell lines NCI-H2171: SCLC cell line NCI-H2171; for Synergy Scores of SCLC cell lines SHP-77: SCLC cell line SHP-77; for synergy with LSD1 inhibition: combination with (trans)-N1-((1R,2S)-2-phenylcyclopropyl)cyclohexane-1,4-diamine, expanded panel of SCLC cell lines

With `CC(C)N(C[C@H]1O[C@@H](n2cnc3c(N)ncnc32)[C@H](O)[C@@H]1O)[C@H]1C[C@@H](CCc2nc3ccc(C(C)(C)C)cc3[nH]2)C1` (relative stereo) [EPZ-5676, 5′-deoxy-5′-[[cis-3-[2-[6-(1,1-dimethylethyl)-1H-benzimidazol-2-yl]ethyl]cyclobutyl](1-methylethyl)amino]-adenosine] the “Synergy Scores of SCLC cell lines DMS-114” value was 0.00, the “Synergy Scores of SCLC cell lines NCI-H69” value was 0.70 and the “Synergy Scores of SCLC cell lines NCI-H187” value was 0.11. The “Synergy Scores of SCLC cell lines NCI-H446” value was 0.24, the “Synergy Scores of SCLC cell lines NCI-H510” value was 19.72 and the “Synergy Scores of SCLC cell lines NCI-H526” value was 1.20. The “Synergy Scores of SCLC cell lines NCI-H1417” value was 0.87, the “Synergy Scores of SCLC cell lines NCI-H1876” value was 6.68 and the “Synergy Scores of SCLC cell lines NCI-H2171” value was 0.05. The “Synergy Scores of SCLC cell lines SHP-77” value was 0.12 and the “synergy with LSD1 inhibition” value was “Synergy was also observed”.
In the case of `CC1(C)CCC(CN2CCN(c3ccc(C(=O)NS(=O)(=O)c4ccc(NCC5CCOCC5)c([N+](=O)[O-])c4)c(Oc4cnc5[nH]ccc5c4)c3)CC2)=C(c2ccc(Cl)cc2)C1` [ABT-199, 4-[4-[[2-(4-Chlorophenyl)-4,4-dimethylcyclohex-1-en-1-yl]methyl]piperazin-1-yl]-N-[[3-nitro-4-[[(tetrahydro-2H-pyran-4-yl)methyl]amino]phenyl]sulfonyl]-2-[(1H-pyrrolo[2,3-b]pyridin-5-yl)oxy]benzamide], the “Synergy Scores of SCLC cell lines DMS-114” value is reported as 0.03, the “Synergy Scores of SCLC cell lines NCI-H69” value is reported as 5.07 and the “Synergy Scores of SCLC cell lines NCI-H187” value is reported as 1.95. The “Synergy Scores of SCLC cell lines NCI-H446” value was 0.07, the “Synergy Scores of SCLC cell lines NCI-H510” value was 13.46 and the “Synergy Scores of SCLC cell lines NCI-H526” value was 3.47. The “Synergy Scores of SCLC cell lines NCI-H1417” value was 11.01, the “Synergy Scores of SCLC cell lines NCI-H1876” value was 4.63 and the “Synergy Scores of SCLC cell lines NCI-H2171” value was 0.04. The “Synergy Scores of SCLC cell lines SHP-77” value was 0.33 and the “synergy with LSD1 inhibition” value was “highly synergistic”.
In the case of `CN(C)CC[C@H](CSc1ccccc1)Nc1ccc(S(=O)(=O)NC(=O)c2ccc(N3CCN(Cc4ccccc4-c4ccc(Cl)cc4)CC3)cc2)cc1[N+](=O)[O-]` [ABT-737, 4-[4-[[2-(4-chlorophenyl)phenyl]methyl]piperazin-1-yl]-N-[4-[[(2R)-4-(dimethylamino)-1-phenylsulfanylbutan-2-yl]amino]-3-nitrophenyl]sulfonylbenzamide], the “Synergy Scores of SCLC cell lines DMS-114” value is reported as 0.42, the “Synergy Scores of SCLC cell lines NCI-H69” value is reported as 4.01 and the “Synergy Scores of SCLC cell lines NCI-H187” value is reported as 4.17. For the same compound, the “Synergy Scores of SCLC cell lines NCI-H446” value was 1.73, the “Synergy Scores of SCLC cell lines NCI-H510” value was 11.80 and the “Synergy Scores of SCLC cell lines NCI-H526” value was 11.44. The “Synergy Scores of SCLC cell lines NCI-H1417” value was 25.26, the “Synergy Scores of SCLC cell lines NCI-H1876” value was 19.84 and the “Synergy Scores of SCLC cell lines NCI-H2171” value was 3.15. The “Synergy Scores of SCLC cell lines SHP-77” value was 1.88 and the “synergy with LSD1 inhibition” value was “highly synergistic”.
For `CN1C(=O)[C@@H](NC(=O)[C@H](CCC(F)(F)F)[C@H](CCC(F)(F)F)C(N)=O)N=C(c2ccccc2)c2ccccc21` [BMS-906024, (2R,3S)-N-[(3S)-1-Methyl-2-oxo-5-phenyl-2,3-dihydro-1H-1,4-benzodiazepin-3-yl]-2,3-bis(3,3,3-trifluoropropyl)succinamide], the “Synergy Scores of SCLC cell lines DMS-114” value was 0.02, the “Synergy Scores of SCLC cell lines NCI-H69” value was 8.46 and the “Synergy Scores of SCLC cell lines NCI-H187” value was 0.45. The “Synergy Scores of SCLC cell lines NCI-H446” value was 0.12, the “Synergy Scores of SCLC cell lines NCI-H510” value was 0.00 and the “Synergy Scores of SCLC cell lines NCI-H526” value was 5.80. The “Synergy Scores of SCLC cell lines NCI-H1417” value was 0.33, the “Synergy Scores of SCLC cell lines NCI-H1876” value was 0.22 and the “Synergy Scores of SCLC cell lines NCI-H2171” value was 0.19. The “Synergy Scores of SCLC cell lines SHP-77” value was 0.03.
In the case of `CCS(=O)(=O)N1CCC(C(C)n2c(C)c(C(=O)NCc3c(OC)cc(C)[nH]c3=O)c3ccccc32)CC1` (stereo not shown) [CPI-169, N-[(1,2-dihydro-4-methoxy-6-methyl-2-oxo-3-pyridinyl)methyl]-1-[1-[1-(ethylsulfonyl)-4-piperidinyl]ethyl]-2-methyl-1H-indole-3-carboxamide], the “Synergy Scores of SCLC cell lines DMS-114” value is reported as 0.06, the “Synergy Scores of SCLC cell lines NCI-H69” value is reported as 0.03 and the “Synergy Scores of SCLC cell lines NCI-H187” value is reported as 0.09. For the same compound, the “Synergy Scores of SCLC cell lines NCI-H446” value was 0.31, the “Synergy Scores of SCLC cell lines NCI-H510” value was 5.76 and the “Synergy Scores of SCLC cell lines NCI-H526” value was 2.46. For the same compound, the “Synergy Scores of SCLC cell lines NCI-H1417” value was 0.38, the “Synergy Scores of SCLC cell lines NCI-H1876” value was 8.50 and the “Synergy Scores of SCLC cell lines NCI-H2171” value was 0.00. The “Synergy Scores of SCLC cell lines SHP-77” value was 0.03 and the “synergy with LSD1 inhibition” value was “Synergy was also observed”.
With `Cc1sc2c(c1C)C(c1ccc(Cl)cc1)=N[C@@H](CC(N)=O)c1nnc(C)n1-2` [CPI-203, (6S)-4-(4-chlorophenyl)-2,3,9-trimethyl-6H-thieno[3,2-f][1,2,4]triazolo[4,3-a][1,4]diazepine-6-acetamide] the “Synergy Scores of SCLC cell lines DMS-114” value was 1.58, the “Synergy Scores of SCLC cell lines NCI-H69” value was 8.68 and the “Synergy Scores of SCLC cell lines NCI-H187” value was 1.24. The “Synergy Scores of SCLC cell lines NCI-H446” value was 0.58, the “Synergy Scores of SCLC cell lines NCI-H510” value was 25.41 and the “Synergy Scores of SCLC cell lines NCI-H526” value was 11.09. For the same compound, the “Synergy Scores of SCLC cell lines NCI-H1417” value was 13.47, the “Synergy Scores of SCLC cell lines NCI-H1876” value was 15.25 and the “Synergy Scores of SCLC cell lines NCI-H2171” value was 6.83. For the same compound, the “Synergy Scores of SCLC cell lines SHP-77” value was 0.37 and the “synergy with LSD1 inhibition” value was “highly synergistic”.
In the case of `Cc1cc(C)c(CNC(=O)c2cc(-c3ccc(CN4CCOCC4)cc3)cc3c2cnn3C2CCCC2)c(=O)[nH]1` [EPZ005687, 1-cyclopentyl-N-[(1,2-dihydro-4,6-dimethyl-2-oxo-3-pyridinyl)methyl]-6-[4-(4-morpholinylmethyl)phenyl]-1H-indazole-4-carboxamide], the “Synergy Scores of SCLC cell lines DMS-114” value is reported as 0.14, the “Synergy Scores of SCLC cell lines NCI-H69” value is reported as 0.80 and the “Synergy Scores of SCLC cell lines NCI-H187” value is reported as 0.10. For the same compound, the “Synergy Scores of SCLC cell lines NCI-H446” value was 0.35, the “Synergy Scores of SCLC cell lines NCI-H510” value was 10.77 and the “Synergy Scores of SCLC cell lines NCI-H526” value was 3.66. The “Synergy Scores of SCLC cell lines NCI-H1417” value was 0.46, the “Synergy Scores of SCLC cell lines NCI-H1876” value was 4.57 and the “Synergy Scores of SCLC cell lines NCI-H2171” value was 0.48. For the same compound, the “Synergy Scores of SCLC cell lines SHP-77” value was 0.23 and the “synergy with LSD1 inhibition” value was “Synergy was also observed”.
With `CCN(c1cc(-c2ccc(CN3CCOCC3)cc2)cc(C(=O)NCc2c(C)cc(C)[nH]c2=O)c1C)C1CCOCC1` [EPZ-6438, N-[(1,2-dihydro-4,6-dimethyl-2-oxo-3-pyridinyl)methyl]-5-[ethyl(tetrahydro-2H-pyran-4-yl)amino]-4-methyl-4′-(4-morpholinylmethyl)-[1,1′-biphenyl]-3-carboxamide] the “Synergy Scores of SCLC cell lines DMS-114” value was 0.04, the “Synergy Scores of SCLC cell lines NCI-H69” value was 0.68 and the “Synergy Scores of SCLC cell lines NCI-H187” value was 0.03. The “Synergy Scores of SCLC cell lines NCI-H446” value was 0.00, the “Synergy Scores of SCLC cell lines NCI-H510” value was 9.06 and the “Synergy Scores of SCLC cell lines NCI-H526” value was 1.82. For the same compound, the “Synergy Scores of SCLC cell lines NCI-H1417” value was 0.31, the “Synergy Scores of SCLC cell lines NCI-H1876” value was 8.18 and the “Synergy Scores of SCLC cell lines NCI-H2171” value was 0.01. The “Synergy Scores of SCLC cell lines SHP-77” value was 0.02 and the “synergy with LSD1 inhibition” value was “Synergy was also observed”.
In the case of `CC1=C(C(=O)OC2CCCCC2)C(c2ccc([N+](=O)[O-])cc2)C2=C(CC(C)(C)CC2=O)N1` (stereo not shown) [FLI 06, Cyclohexyl 1,4,5,6,7,8-hexahydro-2,7,7-trimethyl-4-(4-nitrophenyl)-5-oxo-3-quinolinecarboxylate], the “Synergy Scores of SCLC cell lines DMS-114” value is reported as 5.48, the “Synergy Scores of SCLC cell lines NCI-H69” value is reported as 4.01 and the “Synergy Scores of SCLC cell lines NCI-H187” value is reported as 1.71. For the same compound, the “Synergy Scores of SCLC cell lines NCI-H446” value was 3.29, the “Synergy Scores of SCLC cell lines NCI-H510” value was 0.83 and the “Synergy Scores of SCLC cell lines NCI-H526” value was 2.18. For the same compound, the “Synergy Scores of SCLC cell lines NCI-H1417” value was 0.28, the “Synergy Scores of SCLC cell lines NCI-H1876” value was 6.95 and the “Synergy Scores of SCLC cell lines NCI-H2171” value was 1.76. The “Synergy Scores of SCLC cell lines SHP-77” value was 6.32.
With `CS(=O)(=O)c1ccc(C(=O)Nc2ccc(Cl)c(-c3ccccn3)c2)c(Cl)c1` [GDC-0449, 2-Chloro-N-(4-chloro-3-pyridin-2-ylphenyl)-4-methylsulfonylbenzamide] the “Synergy Scores of SCLC cell lines DMS-114” value was 0.01, the “Synergy Scores of SCLC cell lines NCI-H69” value was 0.90 and the “Synergy Scores of SCLC cell lines NCI-H187” value was 0.16. For the same compound, the “Synergy Scores of SCLC cell lines NCI-H446” value was 0.16, the “Synergy Scores of SCLC cell lines NCI-H510” value was 3.05 and the “Synergy Scores of SCLC cell lines NCI-H526” value was 1.76. The “Synergy Scores of SCLC cell lines NCI-H1417” value was 0.25, the “Synergy Scores of SCLC cell lines NCI-H1876” value was 5.64 and the “Synergy Scores of SCLC cell lines NCI-H2171” value was 0.10. The “Synergy Scores of SCLC cell lines SHP-77” value was 0.24.
For `CC[C@H](C)n1cc(C)c2c(C(=O)NCc3c(C)cc(C)[nH]c3=O)cc(-c3ccc(N4CCNCC4)nc3)cc21` [GSK126, N-[(1,2-dihydro-4,6-dimethyl-2-oxo-3-pyridinyl)methyl]-3-methyl-1-[(1S)-1-methylpropyl]-6-[6-(1-piperazinyl)-3-pyridinyl]-1H-indole-4-carboxamide], the “Synergy Scores of SCLC cell lines DMS-114” value was 0.51, the “Synergy Scores of SCLC cell lines NCI-H69” value was 1.63 and the “Synergy Scores of SCLC cell lines NCI-H187” value was 0.35. The “Synergy Scores of SCLC cell lines NCI-H446” value was 0.41, the “Synergy Scores of SCLC cell lines NCI-H510” value was 12.69 and the “Synergy Scores of SCLC cell lines NCI-H526” value was 3.20. The “Synergy Scores of SCLC cell lines NCI-H1417” value was 0.41, the “Synergy Scores of SCLC cell lines NCI-H1876” value was 10.80 and the “Synergy Scores of SCLC cell lines NCI-H2171” value was 0.80. For the same compound, the “Synergy Scores of SCLC cell lines SHP-77” value was 0.02 and the “synergy with LSD1 inhibition” value was “Synergy was also observed”.
